Laboratory results published in ChEMBL document CHEMBL5154811, “Discovery of SPH5030, a Selective, Potent, and Irreversible Tyrosine Kinase Inhibitor for HER2-Amplified and HER2-Mutant Cancer Treatment” (J Med Chem, 2022).

The chains behind the UniProt entries cited, without tags or fusion partners.
UniProt P00533, whole entry: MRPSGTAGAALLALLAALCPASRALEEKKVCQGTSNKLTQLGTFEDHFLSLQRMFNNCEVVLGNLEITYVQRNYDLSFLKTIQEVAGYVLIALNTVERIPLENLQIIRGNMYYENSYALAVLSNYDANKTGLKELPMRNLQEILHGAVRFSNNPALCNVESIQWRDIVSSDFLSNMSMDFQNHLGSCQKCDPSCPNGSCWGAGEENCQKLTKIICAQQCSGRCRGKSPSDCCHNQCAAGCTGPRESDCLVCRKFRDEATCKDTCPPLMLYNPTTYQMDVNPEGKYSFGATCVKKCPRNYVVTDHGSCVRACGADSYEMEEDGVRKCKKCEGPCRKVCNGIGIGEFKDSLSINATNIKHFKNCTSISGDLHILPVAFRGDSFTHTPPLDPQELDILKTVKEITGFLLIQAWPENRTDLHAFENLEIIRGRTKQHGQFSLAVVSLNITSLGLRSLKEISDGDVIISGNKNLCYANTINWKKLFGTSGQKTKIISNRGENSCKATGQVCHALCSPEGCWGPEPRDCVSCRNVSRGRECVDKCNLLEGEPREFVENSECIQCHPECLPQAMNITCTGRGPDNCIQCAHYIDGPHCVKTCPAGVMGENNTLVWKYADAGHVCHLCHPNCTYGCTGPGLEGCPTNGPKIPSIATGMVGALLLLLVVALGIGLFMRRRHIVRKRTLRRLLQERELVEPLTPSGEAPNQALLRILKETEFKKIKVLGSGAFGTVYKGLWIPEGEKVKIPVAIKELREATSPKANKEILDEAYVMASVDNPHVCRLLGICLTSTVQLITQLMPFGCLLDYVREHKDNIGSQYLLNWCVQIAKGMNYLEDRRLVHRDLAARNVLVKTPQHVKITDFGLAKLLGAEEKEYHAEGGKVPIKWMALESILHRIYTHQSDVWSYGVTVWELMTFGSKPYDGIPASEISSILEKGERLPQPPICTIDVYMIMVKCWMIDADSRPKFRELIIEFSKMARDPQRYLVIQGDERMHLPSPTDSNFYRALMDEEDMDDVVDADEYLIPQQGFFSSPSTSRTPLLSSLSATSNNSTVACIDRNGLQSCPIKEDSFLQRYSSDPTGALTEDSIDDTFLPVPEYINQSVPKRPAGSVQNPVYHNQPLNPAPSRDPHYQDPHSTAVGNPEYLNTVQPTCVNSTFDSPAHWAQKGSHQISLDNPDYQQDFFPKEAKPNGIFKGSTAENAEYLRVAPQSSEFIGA

Experiments:
NCI-N87 = assay: Antiproliferative activity against human NCI-N87 cells assessed as inhibition of cell growth incubated for 72 hrs by Celltiter-Glo assay; assay type: functional, cell-based; settings: NCI-N87, 72 h
[1] = Metabolic stability in human liver microsomes assessed as intrinsic clearance at 1 uM preincubated for 5 mins followed by NADPH addition by LC-MS/MS analysis; assay type: ADME, Microsome; settings: read-out: CLH
[2] = Metabolic stability in human liver microsomes assessed as half life at 1 uM preincubated for 5 mins followed by NADPH addition by LC-MS/MS analysis; assay type: ADME, Microsome
[3] = target: T1, Epidermal growth factor receptor (Homo sapiens, UniProt P00533); assay: Inhibition of wild type human N-terminal GST tagged EGFR (669 to 1210 residues) expressed in Sf21 insect cells incubated for 30 mins in presence of ATP by HTRF analysis
[4] = target: T1, Epidermal growth factor receptor; assay: Inhibition of EGFR (unknown origin)

Work on `CCOc1cc2ncnc(Nc3ccc(Oc4cc5nncn5cn4)c(C)c3)c2cc1NC(=O)/C(F)=C\[C@H]1CCCN1C` yielded an IC50 (NCI-N87) of 1.08 nM.
Molecule `CCOc1cc2ncnc(Nc3ccc(Oc4cc5nncn5cn4)c(C)c3)c2cc1NC(=O)/C(F)=C\[C@@H]1CCCN1C` has a microsomal CLint at 1 µM [1] of 11.8 µL/min/mg and a half-life at 1 µM [2] of 1.96 h.
With `CCOc1cc2ncc(C#N)c(Nc3ccc(OCc4ccccn4)c(Cl)c3)c2cc1NC(=O)/C=C/[C@H]1CCCN1C` [PYROTINIB] the IC50 [3] was 0.98 nM and the IC50 [4] was 0.48 nmol.
